Among the data in ChEMBL document CHEMBL1148711, “Naphthalen-1-yl-(4-pentyloxynaphthalen-1-yl)methanone: a potent, orally bioavailable human CB1/CB2 dual agonist with antihyperalgesic properties and restricted central nervous system penetration” (J Med Chem, 2007) are EC50 and IC50 values, retold here.

Protein sequences, listed by entry. Tags and fused reporters are not part of them.
UniProt P21554, whole entry: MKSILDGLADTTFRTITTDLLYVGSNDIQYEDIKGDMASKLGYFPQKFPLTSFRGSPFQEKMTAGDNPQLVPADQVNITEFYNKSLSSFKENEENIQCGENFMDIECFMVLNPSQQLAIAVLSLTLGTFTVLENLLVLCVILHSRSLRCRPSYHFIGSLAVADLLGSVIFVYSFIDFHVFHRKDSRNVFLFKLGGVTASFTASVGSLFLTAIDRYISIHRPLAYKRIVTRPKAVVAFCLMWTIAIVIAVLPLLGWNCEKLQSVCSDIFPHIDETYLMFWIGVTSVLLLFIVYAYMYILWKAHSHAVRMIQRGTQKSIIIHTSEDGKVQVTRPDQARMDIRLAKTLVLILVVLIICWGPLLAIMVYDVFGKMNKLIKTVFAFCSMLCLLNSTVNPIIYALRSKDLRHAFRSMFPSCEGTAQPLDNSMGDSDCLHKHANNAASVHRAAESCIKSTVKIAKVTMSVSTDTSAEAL

Structures are written as SMILES. pEC50, pIC50: −log10 of the molar value.

As a reminder, the pEC50 is the EC50 on a negative log10 scale, so that one unit is a factor of ten. By pIC50 is commonly meant −log10 of the IC50, conventionally taken in molar units.

Assay [1] addresses T1, Cannabinoid receptor 1 (Homo sapiens, UniProt P21554). The assay can be described thus: Agonist activity at human CB1 receptor expressed in HEK293 cells assessed as reversal of forskolin-evoked cAMP accumulation. Format: functional, cell-based. (Changes in cAMP serve as a functional read-out for many G protein-coupled receptors.)
For assay [2], the target named is T1, Cannabinoid receptor 1. The assay can be described thus: Displacement of [3H]CP-55940 from human CB1 receptor expressed in HEK293 cells. Format: cell-based. For orientation: Loss of bound radioactivity is the signal in a displacement assay; it reports binding, not function.

As to `CCCCCOc1ccc(C(=O)c2cccc3ccccc23)c2ccccc12`, in assay [1], the pEC50 was 8.21. The compound further gave a pIC50 in assay [2] of 7.82.
